Reference: PMC12040185

Target: recombinant murine DNase1 expressed in Pichia pastoris (Mus musculus) (UniProt P49183)

inhibition of DNase1 nuclease activity (hyperchromicity assay, pH 8, 0.1 mM CaCl2 and 1 mM MnCl2) after 20 min pre-incubation with skeletal muscle G-actin; activity without actin set 100%: 50%
Substance: skeletal muscle α-actin (from UniProt P68135 1-377) (natural protein)
